PMC12811997 (Chemmedchem, 2025)

Experiment: Kinetic solubility

## Ethyl 1‐(4‐(3‐(3,5‐Dichlorophenyl)Ureido)‐2‐(Trifluoromethyl)Benzyl)Piperidine‐4‐Carboxylate Hydrochloride [Compound 67]
  Kinetic solubility: <2,0 µM
